This is an account of results in PubChem BioAssay AID651719 (The Scripps Research Institute Molecular Screening Center, 2012).

Amino acid sequences for entries named in this document (tags omitted). Residues count along the entry.
UniProt O60755, 1-299 limits assumed: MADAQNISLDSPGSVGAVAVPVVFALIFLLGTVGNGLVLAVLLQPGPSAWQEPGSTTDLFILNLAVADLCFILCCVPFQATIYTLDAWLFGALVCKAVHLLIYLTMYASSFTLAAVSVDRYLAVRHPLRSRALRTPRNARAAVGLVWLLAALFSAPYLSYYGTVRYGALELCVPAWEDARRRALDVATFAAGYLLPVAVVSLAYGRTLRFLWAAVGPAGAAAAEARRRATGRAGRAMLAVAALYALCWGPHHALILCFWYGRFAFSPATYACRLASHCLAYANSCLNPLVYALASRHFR

By inhibition is commonly meant the relative decrease from the control value, in per cent.

SMILES strings stand for the structures. Only a part is listed here, and it is no random draw. The source made the active and inactive calls.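 Rule for the calls: active = inhibition above the screen-wide average plus 3 SD (cut at about 13% in these data); inactive = the rest.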

This assay addresses Galanin receptor type 3 (Homo sapiens) (UniProt O60755). Nature of the assay: GalR3 antagonists in HEK293 cells, primary screen, cell-based, fluorescence readout (AID 651719).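 Note: forskolin and galanin both at EC90 stimulate the cells; cAMP rise reported by CNG channel membrane potential dye signal; 0% = forskolin plus galanin with DMSO and 100% = forskolin alone.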 The conditions noted are these: HEK293 GalR3-CNG cAMP membrane potential fluorescence; at 3 µM; hits give high values; galR3 body fused to GalR1 C-terminus.
For `CCC(=O)N(c1ccccc1)C1(COC)CCN(CCc2cccs2)CC1`, the inhibition is inactive: -2.02%.
In the case of `CCC(=O)N(c1ccccc1)C1(COC)CCN(CCn2nnn(CC)c2=O)CC1`, the inhibition was inactive: -1.63%.
